Experimental data as given in publication PMC7139830, “Drug Conjugation Induced Modulation of Structural and Membrane Interaction Features of Cationic Cell-Permeable Peptides” (International Journal of Molecular Sciences, 2020).
Where “and” joins values, the source holds several entries; their conditions need not be identical. Equal values may be shown once.

Assay: Analytical RP-HPLC retention time on C-18 column as indicator of polarity
Assay type: physicochemical
Settings: chromatographic, YMC-Pack ODS-A C18 (5 µm, 120 Å) 150 × 4.6 mm; gradient 5% B 2 min, 5%–100% B 20 min; A 0.1% TFA in water, B 0.1% TFA in acetonitrile/water 80/20; 1 mL/min; UV 220 nm
Text: Cationic membrane active peptides and their INH-derivatives were synthesized in good yields, using previously described methods. Peptides were characterized with their monoisotopic molecular mass (M), retention time on a C-18 RP-HPLC column (Rt), estimated hydrophilicity values (H) and net charge (z) (see Table 1). Peptides are listed according to their retention times, which are the indicator of their polarity. […] This order of peptides’ polarity is almost equal to the relative hydrophilicity estimated from the amino acid composition. […] That might be the result of decreased charge due to INH coupling at the N-terminal, although the addition of INH molecule is expected to increase the polarity of the conjugate.
Purified peptides were analyzed by RP-HPLC, on an analytical C-18 column, using gradient elution with the abovementioned eluent A and B (flow rate was 1 mL/min, UV detection at λ = 220 nm). Molecular mass of the peptides was determined on a Thermo Scientific Q Exactive™ Focus Hybrid Quadrupole-Orbitrap™ Mass Spectrometer (ThermoFisher Scientific, Waltham, MA, USA).

Substance: Transportan
- Rt, retention time on C-18 RP-HPLC column (indicator of polarity): > 12 and 16.8
